Laboratory results as given in patent publication US9751854B2 (Millennium Pharmaceuticals, Inc., priority 2014, dated 2017).

Protein sequences, listed by entry. Tags and fused reporters are not part of them.
UniProt Q8NEB9, whole entry: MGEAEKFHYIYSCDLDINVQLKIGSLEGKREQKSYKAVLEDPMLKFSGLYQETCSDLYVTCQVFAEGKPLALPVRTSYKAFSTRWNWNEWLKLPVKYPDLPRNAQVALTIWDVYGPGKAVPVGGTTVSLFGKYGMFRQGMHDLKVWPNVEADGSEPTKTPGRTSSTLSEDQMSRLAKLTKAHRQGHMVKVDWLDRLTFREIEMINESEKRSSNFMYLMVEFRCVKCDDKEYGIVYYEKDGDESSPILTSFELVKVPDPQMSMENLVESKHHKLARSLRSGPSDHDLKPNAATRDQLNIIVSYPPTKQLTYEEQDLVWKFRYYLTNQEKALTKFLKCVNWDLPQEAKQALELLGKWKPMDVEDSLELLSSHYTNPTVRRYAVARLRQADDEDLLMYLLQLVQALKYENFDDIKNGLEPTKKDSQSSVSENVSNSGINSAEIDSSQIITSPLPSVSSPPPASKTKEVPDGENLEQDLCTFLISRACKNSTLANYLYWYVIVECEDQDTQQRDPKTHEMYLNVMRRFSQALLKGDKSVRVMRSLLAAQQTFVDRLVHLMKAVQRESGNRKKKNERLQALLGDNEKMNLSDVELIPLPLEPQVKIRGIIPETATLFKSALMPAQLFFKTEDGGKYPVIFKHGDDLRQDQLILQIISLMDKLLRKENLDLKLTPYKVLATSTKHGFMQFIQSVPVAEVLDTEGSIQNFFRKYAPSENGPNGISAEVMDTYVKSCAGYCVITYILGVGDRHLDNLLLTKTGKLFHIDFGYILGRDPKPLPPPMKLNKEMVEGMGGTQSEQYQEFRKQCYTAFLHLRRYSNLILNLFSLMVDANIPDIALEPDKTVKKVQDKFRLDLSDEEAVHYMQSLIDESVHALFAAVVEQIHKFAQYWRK

Target: human VPS34 (Homo sapiens (Human), UniProt Q8NEB9)
Test: Human VPS34 enzyme assay (Adapta TR-FRET ADP detection)
Format: biochemical

Cc1nccc(Nc2cc(-c3cc(NS(=O)(=O)N(C)C)c4ccnn4c3)ccn2)n1 [Compound I-421, N,N-dimethyl-N′-(6-[2-[(2-methylpyrimidin-4-yl)amino]pyridin-4-yl]pyrazolo[1,5-a]pyridin-4-yl)sulfuric diamide]
IC50: 0.01 to 0.05 µM
